Measured values published in patent US20090036380A1 (YEDA RESEARCH AND DEVELOPMENT, published 2009).

How the values were obtained:
Assay in all cases: RRS screen in yeast, whole Karet protein against an embryonic mouse brain library
[1] = target: T1, ATP Synthase, H+ transporting mitochondrial F1 complex, beta subunit(Atp5b) (mouse, UniProt P56480)
T1 construct: RRS library clone (embryonic mouse brain)

[2] = target: T2, cytochrome P450, family 26, subfamily b, polypeptide 1 (Cyp26b1), mRNA (mouse, UniProt Q811W2 1-512, limits assumed)
T2 construct: RRS library clone (embryonic mouse brain)
T2 sequence (looked up): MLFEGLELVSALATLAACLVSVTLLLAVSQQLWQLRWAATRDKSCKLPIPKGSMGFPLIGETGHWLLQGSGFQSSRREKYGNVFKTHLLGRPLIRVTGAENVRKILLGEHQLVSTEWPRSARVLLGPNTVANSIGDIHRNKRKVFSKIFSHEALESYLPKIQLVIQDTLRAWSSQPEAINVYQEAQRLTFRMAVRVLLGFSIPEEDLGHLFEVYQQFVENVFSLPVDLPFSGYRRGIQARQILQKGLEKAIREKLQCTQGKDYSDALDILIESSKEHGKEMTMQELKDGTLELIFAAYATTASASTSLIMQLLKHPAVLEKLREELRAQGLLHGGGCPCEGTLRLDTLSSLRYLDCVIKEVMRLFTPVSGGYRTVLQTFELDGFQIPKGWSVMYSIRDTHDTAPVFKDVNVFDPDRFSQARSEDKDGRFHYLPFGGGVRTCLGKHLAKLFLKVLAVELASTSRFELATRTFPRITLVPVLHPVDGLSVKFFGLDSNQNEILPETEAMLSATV

[3] = target: T3, CAP, adenylate cyclase-associated protein 1 (mouse, UniProt P40124 2-474, limits assumed)
T3 construct: RRS library clone (embryonic mouse brain)
T3 sequence (looked up): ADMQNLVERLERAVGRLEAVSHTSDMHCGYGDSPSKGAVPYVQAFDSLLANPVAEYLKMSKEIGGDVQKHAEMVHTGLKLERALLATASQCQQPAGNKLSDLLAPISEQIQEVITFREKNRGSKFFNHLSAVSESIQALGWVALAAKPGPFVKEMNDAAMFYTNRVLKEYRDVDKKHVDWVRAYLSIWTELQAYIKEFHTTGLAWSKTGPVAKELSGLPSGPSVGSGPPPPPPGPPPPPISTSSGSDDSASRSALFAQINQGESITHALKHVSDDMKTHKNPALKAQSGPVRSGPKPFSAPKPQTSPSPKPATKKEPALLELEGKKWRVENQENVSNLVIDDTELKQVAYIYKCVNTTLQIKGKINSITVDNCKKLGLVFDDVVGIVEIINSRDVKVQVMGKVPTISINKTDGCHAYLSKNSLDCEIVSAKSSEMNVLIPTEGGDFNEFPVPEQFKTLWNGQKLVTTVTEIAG

[4] = target: T4, Fyn- proto oncogene tyrosine protein kinase, mRNA (mouse, UniProt P39688)
T4 construct: RRS library clone (embryonic mouse brain)

[5] = target: T5, Ubiquitin-activating enzyme E1, Chr X (Ube1x), mRNA (mouse, UniProt Q02053 2-1058, limits assumed)
T5 construct: RRS library clone (embryonic mouse brain)
T5 sequence (looked up): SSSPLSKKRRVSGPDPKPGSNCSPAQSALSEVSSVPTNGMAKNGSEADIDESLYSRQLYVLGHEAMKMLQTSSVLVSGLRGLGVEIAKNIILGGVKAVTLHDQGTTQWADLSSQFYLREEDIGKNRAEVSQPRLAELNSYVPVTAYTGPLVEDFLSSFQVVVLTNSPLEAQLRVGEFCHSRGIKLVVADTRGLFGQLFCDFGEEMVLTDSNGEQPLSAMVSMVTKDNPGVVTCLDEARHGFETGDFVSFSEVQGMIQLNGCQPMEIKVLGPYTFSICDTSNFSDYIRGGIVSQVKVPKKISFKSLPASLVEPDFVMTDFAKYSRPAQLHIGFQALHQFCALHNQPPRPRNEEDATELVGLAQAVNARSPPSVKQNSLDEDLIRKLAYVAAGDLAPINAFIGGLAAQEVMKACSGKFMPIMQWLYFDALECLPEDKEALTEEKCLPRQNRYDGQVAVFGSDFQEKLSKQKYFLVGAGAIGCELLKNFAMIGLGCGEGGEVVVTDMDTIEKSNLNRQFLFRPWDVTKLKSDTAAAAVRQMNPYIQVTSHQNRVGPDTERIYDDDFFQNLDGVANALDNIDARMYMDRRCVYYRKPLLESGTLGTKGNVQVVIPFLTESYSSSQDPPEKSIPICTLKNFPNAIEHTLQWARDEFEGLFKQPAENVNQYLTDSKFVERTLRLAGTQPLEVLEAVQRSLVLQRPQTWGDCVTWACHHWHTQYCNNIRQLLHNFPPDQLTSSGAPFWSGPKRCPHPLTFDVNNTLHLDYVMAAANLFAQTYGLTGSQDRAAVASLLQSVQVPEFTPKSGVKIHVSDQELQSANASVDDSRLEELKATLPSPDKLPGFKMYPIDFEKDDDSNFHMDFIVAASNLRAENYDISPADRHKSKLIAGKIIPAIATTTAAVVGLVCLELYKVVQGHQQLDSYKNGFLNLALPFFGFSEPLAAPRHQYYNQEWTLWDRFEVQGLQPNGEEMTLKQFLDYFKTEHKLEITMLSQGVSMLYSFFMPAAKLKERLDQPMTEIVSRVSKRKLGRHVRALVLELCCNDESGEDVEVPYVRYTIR

[6] = target: T6, Neural precursor cell expressed, developmentally down-regulted gene 4 (Nedd4), mRNA (mouse, UniProt P46935)
T6 construct: RRS library clone (embryonic mouse brain)

- binding result [1]: binds
- binding result [2]: binds
- binding result [3]: binds
- binding result [4]: binds
- binding result [5]: binds
- binding result [6]: binds
B1: full length Karet protein (RRS bait) (other)
chain: MEEEGKKGKKPGIVSPFKRVFLKGEKSRDKKAHEKVTERRPLHTVVLALPERVEPDRLLSDYIEKEVKYLGQLTSIPGYLNPSSRTEILHFIDKAKRSHQLPGHLTQEHDAVLSLSAYNVKLAWRDGEDIILRVPIHDIAAVSYVRDDAAHLVVLKTAQDPGISPSQSLCAESSRGLSAGSLSESAVGPVEACCLVIMATESKVAAEELCSLLSQVFQIVYTESTIDFLDRAIFDGASTPTHHLSLHSDDSSTKVDMKDSYDADASTFCFPDSGDVGGLPPLPFCMQTSPHSKTVSESELSTSATELLQDYMLTLRTKLSSQEIQQFAALLHEYRNGASIHEFCISLRQLYGDSRKFLLLGLRPFIPEKDSQHFENFLETIGVKDGRGIITDSFGRHRRALSTTSTSTINGNRTTGSPDDRSAPSEGDEWDRMISDISSDIEALGCSMDQDSA
notes: Yeast RRS construct; fusion partner not described; also called whole Karet protein
